Some compounds may have been tested in ways that are not shown here.
Legend:
Format in all cases: ADME, Microsome
[1] = system: Liver microsomes; assay: Clearance in human liver microsomes at 1 uM
[2] = molecular target: Cytochrome P450 2C9 (Homo sapiens, UniProt P11712); assay: Half life in human liver microsomes assessed as CYP2C9-mediated parent compound depletion at 1 uM
[3] = molecular target: Cytochrome P450 1A2 (Homo sapiens, UniProt P05177); assay: Half life in human liver microsomes assessed as CYP1A2-mediated parent compound depletion at 1 uM
[4] = molecular target: Cytochrome P450 2B6 (Homo sapiens, UniProt P20813); assay: Half life in human liver microsomes assessed as CYP2B6-mediated parent compound depletion at 1 uM
[5] = molecular target: Cytochrome P450 2C8 (Homo sapiens, UniProt P10632); assay: Half life in human liver microsomes assessed as CYP2C8-mediated parent compound depletion at 1 uM

By UniProt entry, the sequences of proteins in these tests, tags left out. Residues count along the entry.
UniProt P11712, whole entry: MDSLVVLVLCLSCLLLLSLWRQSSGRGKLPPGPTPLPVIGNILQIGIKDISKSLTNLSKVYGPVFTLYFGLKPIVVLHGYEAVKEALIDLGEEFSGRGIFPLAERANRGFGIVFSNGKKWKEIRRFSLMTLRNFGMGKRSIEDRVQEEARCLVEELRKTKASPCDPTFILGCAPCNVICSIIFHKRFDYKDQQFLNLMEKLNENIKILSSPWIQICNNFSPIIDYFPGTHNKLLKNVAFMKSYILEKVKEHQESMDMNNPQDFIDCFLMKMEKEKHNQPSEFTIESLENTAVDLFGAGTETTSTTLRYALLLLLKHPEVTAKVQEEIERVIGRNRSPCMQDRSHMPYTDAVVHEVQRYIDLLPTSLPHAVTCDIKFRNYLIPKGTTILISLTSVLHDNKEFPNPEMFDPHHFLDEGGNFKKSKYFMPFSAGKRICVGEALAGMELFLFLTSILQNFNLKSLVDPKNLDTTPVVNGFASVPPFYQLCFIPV
UniProt P05177, 2-516 limits assumed: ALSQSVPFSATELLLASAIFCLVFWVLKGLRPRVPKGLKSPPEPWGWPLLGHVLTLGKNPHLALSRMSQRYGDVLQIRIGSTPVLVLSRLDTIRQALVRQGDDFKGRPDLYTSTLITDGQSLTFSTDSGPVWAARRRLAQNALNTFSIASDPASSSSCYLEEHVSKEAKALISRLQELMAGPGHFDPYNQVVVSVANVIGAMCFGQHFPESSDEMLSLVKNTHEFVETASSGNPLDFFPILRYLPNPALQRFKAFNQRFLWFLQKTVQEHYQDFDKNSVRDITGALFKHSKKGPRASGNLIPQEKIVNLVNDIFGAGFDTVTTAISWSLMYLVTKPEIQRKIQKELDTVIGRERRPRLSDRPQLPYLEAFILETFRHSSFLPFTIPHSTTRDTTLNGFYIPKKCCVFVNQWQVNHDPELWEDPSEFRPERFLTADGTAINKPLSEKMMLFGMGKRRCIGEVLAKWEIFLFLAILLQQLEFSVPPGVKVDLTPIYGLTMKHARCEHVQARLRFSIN
UniProt P20813, whole entry: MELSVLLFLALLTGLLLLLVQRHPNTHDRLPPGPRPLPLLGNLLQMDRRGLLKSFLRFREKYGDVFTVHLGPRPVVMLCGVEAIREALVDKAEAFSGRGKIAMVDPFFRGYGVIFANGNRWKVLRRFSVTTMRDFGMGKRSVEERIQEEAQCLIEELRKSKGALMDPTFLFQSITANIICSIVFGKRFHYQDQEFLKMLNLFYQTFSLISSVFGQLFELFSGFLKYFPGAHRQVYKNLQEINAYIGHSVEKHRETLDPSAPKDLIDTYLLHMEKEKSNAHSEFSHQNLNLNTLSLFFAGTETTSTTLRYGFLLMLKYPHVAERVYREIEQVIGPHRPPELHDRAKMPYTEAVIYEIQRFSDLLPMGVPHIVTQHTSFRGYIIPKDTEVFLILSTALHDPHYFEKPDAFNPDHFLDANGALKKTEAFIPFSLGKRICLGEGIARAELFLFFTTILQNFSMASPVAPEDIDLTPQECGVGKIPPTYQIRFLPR
UniProt P10632, whole entry: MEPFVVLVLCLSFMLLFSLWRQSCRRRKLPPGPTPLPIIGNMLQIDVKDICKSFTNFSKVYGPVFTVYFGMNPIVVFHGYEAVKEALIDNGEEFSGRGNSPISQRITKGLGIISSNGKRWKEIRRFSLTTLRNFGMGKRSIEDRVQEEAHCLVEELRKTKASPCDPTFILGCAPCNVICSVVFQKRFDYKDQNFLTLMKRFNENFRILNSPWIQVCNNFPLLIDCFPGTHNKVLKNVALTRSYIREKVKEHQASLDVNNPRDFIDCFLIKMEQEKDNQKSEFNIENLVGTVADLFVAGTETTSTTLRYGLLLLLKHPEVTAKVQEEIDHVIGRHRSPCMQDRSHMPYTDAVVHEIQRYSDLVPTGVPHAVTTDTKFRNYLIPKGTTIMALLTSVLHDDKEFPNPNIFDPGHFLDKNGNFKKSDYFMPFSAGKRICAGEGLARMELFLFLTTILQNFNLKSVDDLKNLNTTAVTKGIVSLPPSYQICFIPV

## CC(C)N1CCC(N(C(=O)Cc2ccccc2)c2ccc(Cl)cc2)CC1
[1]
  CLH: 159 µL/min/mg
[2]
  t1/2: > 1 h
[3]
  t1/2: > 1 h
[4]
  t1/2: > 1 h
[5]
  t1/2: > 1 h

Source: ChEMBL document CHEMBL2021815, “Metabolism of 4-Aminopiperidine Drugs by Cytochrome P450s: Molecular and Quantum Mechanical Insights into Drug Design” (ACS Med Chem Lett, 2011)
